Source: patent US20240174621A1, “METHYLQUINAZOLINONE DERIVATIVES” (Hoffmann-La Roche Inc., priority 2019, published 2024)

System: P-ERK in HCT116 cells expressing WT BRAF
Format: cell-based
Settings: HCT-116 cells; maximum P-ERK signal as percentage of highest dabrafenib signal
From the text: DMEM no-phenol red medium supplemented with L-glutamine was purchased from (Thermo Fisher Scientific). Fetal bovine serum (FBS) was purchased from VWR. Advanced ERK phospho-T202/Y204 kit—10,000 tests was purchased from Cisbio cat #64AERPEH. A375 and HCT116 cells were originally obtained from ATCC and banked by the Roche repository. 384-well microplates were purchased from Greiner Bio-One, 384-well, (With Lid, HiBase, Low volume cat 784-080).
A375 is a cellular cancer model expressing V600E mutated BRAF and HCT116 a cellular cancer model expressing WT BRAF. […] ERK 1,2 phosphorylation (terminal member of the phosphorylation cascade of the MAPK pathway) is hereafter reported as main readout for the activation status of the MAPK pathway. […]
The plate is then analyzed and fluorescence emission value collected through a Pherastast FSX (BMG Labtech) apparatus at […].
The obtained fluorescence values are processed according to the formula Ratio=[…]*10000 then the average of the ratio on the blank is subtracted to all values. […]
The Percentage of Maximum paradox inducing effect from dabrafenib is determined by evaluating the percentage at which the test compound induce its maximum P-ERK signal as percentage of the highest signal produced by dabrafenib within the dose range tested.

CCCS(=O)(=O)Nc1ccc(F)c(Oc2ccc3ncn(C)c(=O)c3c2)c1C#N [AR-25]
Percentage of Maximum paradox inducing effect from dabrafenib: 103%
